Broadly, the IC50 is the point on the concentration scale where inhibition reaches its midpoint. A higher IC50 goes with a need for much substance.

Amino acid sequences for entries named in this document (tags omitted).
UniProt P50750, whole entry: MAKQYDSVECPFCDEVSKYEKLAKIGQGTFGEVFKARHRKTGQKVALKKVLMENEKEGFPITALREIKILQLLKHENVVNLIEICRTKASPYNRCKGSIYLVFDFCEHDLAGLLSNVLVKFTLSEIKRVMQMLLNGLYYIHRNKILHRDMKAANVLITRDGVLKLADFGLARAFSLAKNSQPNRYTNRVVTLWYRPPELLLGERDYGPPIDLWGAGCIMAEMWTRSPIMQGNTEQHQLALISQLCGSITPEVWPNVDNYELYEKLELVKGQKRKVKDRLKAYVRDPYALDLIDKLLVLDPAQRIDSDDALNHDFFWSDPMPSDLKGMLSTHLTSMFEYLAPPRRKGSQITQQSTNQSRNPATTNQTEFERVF

In this test the target is Cyclin-dependent kinase 9 (Homo sapiens, UniProt P50750). Briefly: Inhibition of human CDK9.

Consider `CN1C/C=C/CCOc2cccc(c2)-c2ccnc(n2)Nc2cccc(c2)C1` [ZOTIRACICLIB], for which the IC50 was 2 nM.

For the origin of these results see ChEMBL document CHEMBL4699469, “Recent Developments in the Biology and Medicinal Chemistry of CDK9 Inhibitors: An Update” (J Med Chem, 2020).
